DENV2 CPE rescue: DENV2-induced cell death inhibition; CPE inhibition, % at 9.99 µM; 350,000 compounds, 1.7% hits; DENV2-infected cells, cytopathic effect rescue, plate reader; AID 651640; in the data active means CPE inhibition above about 20%, passing the limit was not always enough; inconclusive means no clear call, values can overlap the other calls; tested in BHK-21 cells;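 further: 0% = median of neutral control wells and 100% = median of positive control wells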
Cneo AK release: Cryptococcus neoformans lysis via adenylate kinase release; C. neoformans lysis, adenylate kinase release luminescence, 4 h; normalised: neutral wells 0, clomiphene wells 100; lysis activity, % at 15 µM; 360,000 compounds, 0.2% hits;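 active means mean lysis activity across replicates of at least 80%, whatever share of replicates individually reach that level; inactive means mean lysis activity below 80%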
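Signal: Adenylate kinase release luminescence | Assay system: Log-phase Cryptococcus neoformans yeast cells | Input: Cells at 5 × 10^6 per mL | Buffer or medium: Fresh YPD growth medium | Compound: Single dose | Schedule: Static 4 h at 37 °C with compound, 1 h detection | Controls: Clomiphene | Read-out: Luminescence rise reflecting yeast cell lysis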
Yeast UUG start: alters start codon recognition fidelity in yeast; S. cerevisiae UUG-firefly luciferase reporter, luminescence/redox ratio; activity score, % at 18.7 µM; actives 0.13% (n = 350,000); AID 602363;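 active = replicate mean at a twofold rise or more, about +100% in these data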;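 also: firefly luciferase made from a UUG start codon reports start codon fidelity; reporter light over untreated wells divided by growth signal over untreated wells; some hits fall short of that in this replicate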
E-selectin induc: E-selectin induction on HUVECs | 260,000 compounds, 0.37% hits | HUVEC E-selectin immunofluorescence imaging; normalized: neutral wells 0, TNF-alpha wells 100 | AID 686992 | activation, % at 7.58 µM;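 active means mean E-selectin-positive cell signal at least 10% of the positive control, reached in at least 60% of replicates, without over 20% cell loss; inconclusive means no rule given, readout overlaps actives, possibly toxicity-flagged; inactive means the rest, including those meeting only one limit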
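Read-out basis: % PE-positive cells; Test system: HUVEC primary endothelial cells; Technique: immunofluorescence imaging; Dosing: single-point compound dose.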
* hit, by the source's call; ? = inconclusive; / = no result. In the library only some 1.8% were active in any assay of this set; here they are far more common.

entry	mol	DENV2 CPE rescue	Cneo AK release
1	CCC1=C2CC[C@H]3C(=O)N(C)C(=O)[C@H]3[C@H]2[C@@]2(Cc3ccccc3)C(=NCCOC)OC(=O)N2C1=O	40*	0
2	CCC1=C(OC(=O)N(CC)CC)N2C(=O)OC(=NCCOC)[C@]2(Cc2ccccc2)[C@H]2C1=CC[C@H]1C(=O)N(CC)C(=O)[C@H]12	21*	1
3	COC(=O)[C@@]1(CCS(=O)(=O)c2ccccc2)N=C(c2ccc(OCCCO)cc2)O[C@H]1c1ccccc1CN=[N+]=[N-]	22*	/
4	COC(=O)[C@@]1(Cc2ccccc2CN=[N+]=[N-])N=C(c2ccc(OCCCO)cc2)O[C@H]1c1ccccc1N=[N+]=[N-]	-1	11
5	O=C(N1CCOCC1)[C@]1(CCS(=O)(=O)c2ccccc2)N=C(c2ccc(OCCCO)cc2)O[C@@H]1c1ccccc1	23*	4
6	CCOC(=O)C1=C(C)NC(=O)NC1c1ccc(N(CC)CC)cc1 (centres undefined)	8	-1
7	CCOC(=O)C1=C(C)NC(=O)NC1c1ccc(N(C)C)cc1 (centres undefined)	70*	0
8	N=C1C=CC(=C(c2ccc(N)cc2)c2ccc(N)cc2)C=C1	-7	/
9	COc1ccc(S(=O)(=O)Nc2ccc3c(c2)C(=O)N([C@H](C)CO)C[C@H](C)[C@H](CN(C)Cc2ccccc2)OCCCC[C@@H](C)O3)cc1	-7	3
10	C[C@@H]1CCCCO[C@H](CN(C)C(=O)C2CCCCC2)[C@H](C)CN([C@H](C)CO)C(=O)c2cc(NC(=O)Nc3ccccc3)ccc2O1	12	1
11	O=C(C1CCOCC1)N1[C@H](CO)[C@@H](c2ccccc2)C12CN(Cc1cccnc1)C2	97*	/
12	O=C(Cc1cccnc1)N1CC2(C1)[C@H](c1ccccc1)[C@@H](CO)N2C(=O)C1CC1	21*	/

entry	Yeast UUG start	E-selectin induc
1	-7	0
2	3	0
3	9	/
4	1	/
5	5	/
6	3	0
7	4	0
8	/	39*
9	-1	0
10	15	/
11	/	0
12	/	0

Compounds shown so far that have nitrogen in an aromatic ring:
entry	mol	DENV2 CPE rescue	Cneo AK release
11	O=C(C1CCOCC1)N1[C@H](CO)[C@@H](c2ccccc2)C12CN(Cc1cccnc1)C2	97*	/
12	O=C(Cc1cccnc1)N1CC2(C1)[C@H](c1ccccc1)[C@@H](CO)N2C(=O)C1CC1	21*	/

entry	Yeast UUG start	E-selectin induc
11	/	0
12	/	0

The listing picks up, starting 2 compounds before the break.
entry	mol	DENV2 CPE rescue	Cneo AK release
11	O=C(C1CCOCC1)N1[C@H](CO)[C@@H](c2ccccc2)C12CN(Cc1cccnc1)C2	97*	/
12	O=C(Cc1cccnc1)N1CC2(C1)[C@H](c1ccccc1)[C@@H](CO)N2C(=O)C1CC1	21*	/
13	CC(C)NC(=O)N1[C@H](CO)[C@@H](c2ccccc2)C12CN(C(=O)Cc1cccnc1)C2	31*	/
14	O=C(C[C@H]1C=C[C@H](NC(=O)Cc2cccnc2)[C@@H](CO)O1)Nc1ccccc1	1	-10
15	CS(=O)(=O)N[C@H]1C[C@@H]2O[C@H](CO)CC[C@@H]2O[C@@H]1CCc1ccc(-c2ccccc2F)cc1	-2	/
16	CCCNC(=O)N1CC2(C1)[C@@H](c1ccccc1)[C@@H](CO)N2C(=O)C1CCCC1	3	/
17	CC(/C=N/NC(=O)c1nn(C)c(C)c1Br)=C\c1ccccc1	25*	-12
18	OC[C@@H]1[C@H](c2ccc(-c3ccc(F)cc3)cc2)[C@@H]2CN(Cc3ccncc3)CCCCN12	38*	1
19	COCC(=O)N1CCCCN2[C@@H](CO)[C@@H](c3ccc(-c4ccc(C)cc4)cc3)[C@@H]2C1	66*	0
20	COCC(=O)N1CCCCN2[C@@H](CO)[C@H](c3ccc(-c4ccc(C)cc4)cc3)[C@@H]2C1	47*	0
21	COCC(=O)N1CCCCN2[C@@H](CO)[C@@H](c3ccc(-c4ccc(F)cc4)cc3)[C@@H]2C1	28*	1
22	COCC(=O)N1CCCCN2[C@H](CO)[C@H](c3ccc(-c4ccc(C)cc4)cc3)[C@@H]2C1	?	1
23	C[C@H]1CN([C@@H](C)CO)C(=O)Cc2cc(NS(=O)(=O)c3cn(C)cn3)ccc2O[C@H]1CN(C)Cc1ccc(C(=O)Nc2ccccc2N)cc1	-8	/
24	CCNC(=O)C[C@H]1CC[C@@H]2[C@@H](COc3ccc(NC(=O)c4cscn4)cc3C(=O)N2C)O1	4	4

entry	Yeast UUG start	E-selectin induc
11	/	0
12	/	0
13	/	0
14	/	0
15	/	/
16	/	0
17	-4	/
18	-15	0
19	0	0
20	6	-1
21	-7	0
22	8	1
23	/	0
24	6	1

entry	mol	DENV2 CPE rescue	Cneo AK release
25	CN1CCCCN2[C@@H](CO)[C@H](c3ccc(-c4ccccc4)cc3)[C@@H]2C1	32*	1
26	COCC(=O)N1CCCCN2[C@H](CO)[C@@H](c3ccc(-c4ccccc4)cc3)[C@H]2C1	40*	-1
27	Cc1ccc(S(=O)(=O)NCc2ccccc2)cc1C(=O)N1CCN(S(=O)(=O)c2ccccc2F)CC1	58*	-8
28	CO[C@H]1CN(C)C(=O)c2cc(NS(=O)(=O)c3ccccc3)ccc2OC[C@H](C)N(C)C[C@H]1C	27*	-10
29	CO[C@H]1CN(C)C(=O)c2ccc(NS(=O)(=O)c3ccccc3)cc2OC[C@H](C)N(C)C[C@@H]1C	-7	/
30	CO[C@H]1CN(C)C(=O)c2cc(NS(=O)(=O)c3ccc(C)cc3)ccc2OC[C@@H](C)N(C(=O)NC(C)C)C[C@H]1C	7	-2
31	CO[C@H]1CN(C)C(=O)c2ccc(NS(=O)(=O)c3ccccc3)cc2OC[C@@H](C)N(Cc2ccccn2)C[C@H]1C	7	1
32	CO[C@H]1CN(C)C(=O)c2ccc(NS(=O)(=O)c3ccccc3)cc2OC[C@H](C)N(Cc2ccccn2)C[C@@H]1C	36*	0
33	CO[C@H]1CN(C)C(=O)c2cc(NS(=O)(=O)c3ccc(C)cc3)ccc2OC[C@@H](C)N(C(=O)NC(C)C)C[C@@H]1C	8	97*
34	CO[C@@H]1CN(C)C(=O)c2ccc(NS(=O)(=O)c3ccccc3)cc2OC[C@H](C)N(C)C[C@H]1C	25*	0
35	COc1cccc(C#Cc2ccc([C@H]3[C@H]4CN(C(C)=O)CC(=O)N4[C@H]3CO)cc2)c1	0	/
36	Cc1ccc(S(=O)(=O)N2C3CCCCC3O[C@H]2CC(=O)c2cccs2)cc1 (some centres undefined)	48*	/

entry	Yeast UUG start	E-selectin induc
25	-7	0
26	-8	0
27	-9	0
28	1	0
29	/	0
30	/	0
31	11	0
32	-7	0
33	/	0
34	2	0
35	/	0
36	/	0

entry	mol	DENV2 CPE rescue	Cneo AK release
37	O=C(c1ccccc1)N1C[C@H]2[C@@H](c3ccccc31)[C@@H](CO)N2C(=O)CN1CCOCC1	2	-1
38	O=C(C1CCCC1)N1C[C@@H]2[C@H](c3ccccc31)[C@@H](CO)N2C(=O)Cc1ccccn1	34*	-4
39	O=C(CC(F)(F)F)N1C[C@@H]2[C@H](c3ccccc31)[C@@H](CO)N2C(=O)C1CC1	36*	48
40	O=C(CC(F)(F)F)N1C[C@@H]2[C@H](c3ccccc31)[C@@H](CO)N2C(=O)CN1CCOCC1	53*	0
41	COc1ccccc1C(=O)N1C[C@@H]2[C@H](c3ccccc31)[C@H](CO)N2C(=O)C1CCCC1	22*	-4
42	COCC(=O)N1[C@H](CO)[C@@H]2c3ccccc3N(C(=O)NC(C)C)C[C@@H]21	-2	/
43	O=C(Cc1ccccc1)N1C[C@@H]2[C@H](c3ccccc31)[C@@H](CO)N2C(=O)C1CCCCC1	24*	-4
44	O=C(Cc1ccccc1)N1C[C@H]2[C@@H](c3ccccc31)[C@@H](CO)N2C(=O)C1CC1	25*	-5
45	O=C(Cc1ccccc1)N1C[C@@H]2[C@H](c3ccccc31)[C@H](CO)N2C(=O)C1CCCC1	/	0

entry	Yeast UUG start	E-selectin induc
37	-12	0
38	-7	0
39	36	0
40	18	0
41	-8	1
42	/	0
43	42	0
44	96	0
45	19	0
